This test has as its target Growth hormone secretagogue receptor type 1 (Homo sapiens, UniProt Q92847). As to the kind of experiment: Receptor Binding Studies. The protocol: Specific binding was determined by incubation of membranes from GHS-R1a transfected LLC cells with 125I-His9-ghrelin in the presence of increasing concentrations of compounds to obtain IC50. For the compounds behaving as agonists and displaying a high affinity binding for hGHS-R1a in radiolabeled binding experiments, the EC50 (the molar concentration of the agonist producing 50% of the maximal possible effect of that agonist) was determined using a dose-response curve. In the case of high-affinity antagonists, Kb values were determined using antagonist inhibition curves in the presence of 0.1 uM ghrelin (submaximal concentration).

The chains behind the UniProt entries cited, without tags or fusion partners.
UniProt Q92847, whole entry: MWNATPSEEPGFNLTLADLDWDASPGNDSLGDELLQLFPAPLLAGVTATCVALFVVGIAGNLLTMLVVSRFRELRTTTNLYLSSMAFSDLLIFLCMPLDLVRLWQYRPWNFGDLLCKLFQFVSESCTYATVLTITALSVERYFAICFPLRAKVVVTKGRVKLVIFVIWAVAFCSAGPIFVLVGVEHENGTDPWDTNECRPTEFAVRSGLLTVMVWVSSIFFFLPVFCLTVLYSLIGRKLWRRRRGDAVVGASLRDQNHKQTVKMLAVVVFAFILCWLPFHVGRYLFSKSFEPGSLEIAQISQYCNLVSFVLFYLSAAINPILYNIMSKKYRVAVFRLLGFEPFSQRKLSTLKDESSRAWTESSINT

Structures are written as SMILES.

As for `COc1ccc(Cn2c(CCc3ccccc3)nnc2[C@@H](Cc2c[nH]c3ccccc23)NC(=O)C2CCCCN2)cc1` (single isomer, unassigned), the Kb was found to be 27 nM.

In the case of `COc1ccc(Cn2c(CCc3ccccc3)nnc2[C@@H](Cc2c[nH]c3ccccc23)NC(=O)[C@H]2CCCCN2)cc1` [(2R)-N-[(1R)-2-(1H-indol-3-yl)-1-{4-[(4-methoxyphenyl)methyl]-5-(2-phenylethyl)-4H-1,2,4-triazol-3-yl}ethyl]piperidine-2-carboxamide], the Kb came out at 53 nM.

Under “pH 7.3, 25 °C”, `COc1ccc(Cn2c(CCc3ccccc3)nnc2[C@@H](Cc2c[nH]c3ccccc23)NC(=O)CN)cc1` [JMV2959] gave a Kb of 19 nM.

The record behind these values is BindingDB's records for doi:10.1021/jm0704550 (Cnrs, 2007).
